Test results published in PubChem BioAssay (Tox21).
Several values for one entry are separate records, joined by “and”; a condition that tells them apart may be missing. Identical values can stand only once. The entries are a selection whose mix differs from that of the whole data set. Records with an inconclusive call do not appear. Activity calls are given as the source filed them. Unless noted, the call rests on the fitted dose curve.

Chains of the proteins cited; added tags and fusions are not shown.
UniProt P30968, whole entry: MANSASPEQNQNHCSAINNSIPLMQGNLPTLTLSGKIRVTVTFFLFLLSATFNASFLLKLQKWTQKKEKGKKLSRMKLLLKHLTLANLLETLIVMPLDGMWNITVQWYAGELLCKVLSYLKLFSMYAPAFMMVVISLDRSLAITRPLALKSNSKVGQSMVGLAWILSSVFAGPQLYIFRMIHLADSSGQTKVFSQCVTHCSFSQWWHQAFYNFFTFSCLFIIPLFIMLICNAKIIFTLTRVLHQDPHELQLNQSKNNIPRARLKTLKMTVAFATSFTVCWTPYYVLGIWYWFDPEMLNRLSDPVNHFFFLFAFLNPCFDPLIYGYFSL
UniProt Q969F8, whole entry: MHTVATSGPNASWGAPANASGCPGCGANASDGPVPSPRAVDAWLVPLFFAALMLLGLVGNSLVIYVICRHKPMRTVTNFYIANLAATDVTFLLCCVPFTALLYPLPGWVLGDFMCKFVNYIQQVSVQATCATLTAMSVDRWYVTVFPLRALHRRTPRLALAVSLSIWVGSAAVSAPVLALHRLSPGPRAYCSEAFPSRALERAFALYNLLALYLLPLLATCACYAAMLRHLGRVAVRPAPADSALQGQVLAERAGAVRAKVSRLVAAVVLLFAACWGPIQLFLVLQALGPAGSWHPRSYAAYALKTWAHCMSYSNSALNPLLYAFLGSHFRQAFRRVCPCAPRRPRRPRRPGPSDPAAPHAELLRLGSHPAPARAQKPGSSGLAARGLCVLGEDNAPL
UniProt P28223, whole entry: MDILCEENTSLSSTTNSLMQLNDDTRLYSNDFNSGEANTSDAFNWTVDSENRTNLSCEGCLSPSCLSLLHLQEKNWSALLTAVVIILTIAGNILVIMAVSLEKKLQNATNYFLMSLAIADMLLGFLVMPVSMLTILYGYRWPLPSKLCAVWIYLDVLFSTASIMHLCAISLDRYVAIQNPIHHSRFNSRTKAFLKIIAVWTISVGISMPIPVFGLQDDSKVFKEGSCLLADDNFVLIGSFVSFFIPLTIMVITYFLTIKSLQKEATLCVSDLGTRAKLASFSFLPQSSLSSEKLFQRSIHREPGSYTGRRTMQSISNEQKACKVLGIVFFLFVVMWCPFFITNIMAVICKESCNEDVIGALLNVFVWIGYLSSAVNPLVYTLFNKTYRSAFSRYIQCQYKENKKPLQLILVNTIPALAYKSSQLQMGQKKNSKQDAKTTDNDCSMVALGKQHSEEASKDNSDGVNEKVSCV
UniProt P11229, whole entry: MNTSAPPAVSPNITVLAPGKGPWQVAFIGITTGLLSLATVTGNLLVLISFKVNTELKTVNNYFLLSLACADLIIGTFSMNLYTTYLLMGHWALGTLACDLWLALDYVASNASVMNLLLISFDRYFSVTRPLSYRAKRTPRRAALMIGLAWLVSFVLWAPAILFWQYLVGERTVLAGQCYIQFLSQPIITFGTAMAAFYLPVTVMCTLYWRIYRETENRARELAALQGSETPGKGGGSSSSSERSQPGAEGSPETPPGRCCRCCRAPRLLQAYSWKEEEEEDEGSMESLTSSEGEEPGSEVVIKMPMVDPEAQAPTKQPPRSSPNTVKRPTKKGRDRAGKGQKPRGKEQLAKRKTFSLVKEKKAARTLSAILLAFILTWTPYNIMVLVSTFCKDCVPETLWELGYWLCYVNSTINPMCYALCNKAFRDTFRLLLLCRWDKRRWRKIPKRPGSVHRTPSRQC
UniProt P07550, whole entry: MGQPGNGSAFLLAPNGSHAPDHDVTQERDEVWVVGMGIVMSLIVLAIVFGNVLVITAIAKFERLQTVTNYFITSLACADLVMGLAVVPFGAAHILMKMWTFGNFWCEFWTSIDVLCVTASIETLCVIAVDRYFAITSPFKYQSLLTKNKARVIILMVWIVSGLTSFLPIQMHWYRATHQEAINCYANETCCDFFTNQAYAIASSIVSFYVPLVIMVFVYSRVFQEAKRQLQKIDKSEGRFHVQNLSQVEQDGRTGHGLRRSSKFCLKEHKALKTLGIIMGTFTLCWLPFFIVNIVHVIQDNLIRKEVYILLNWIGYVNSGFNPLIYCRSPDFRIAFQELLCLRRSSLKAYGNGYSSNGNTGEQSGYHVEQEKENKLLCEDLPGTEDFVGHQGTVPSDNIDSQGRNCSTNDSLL
UniProt P14416, whole entry: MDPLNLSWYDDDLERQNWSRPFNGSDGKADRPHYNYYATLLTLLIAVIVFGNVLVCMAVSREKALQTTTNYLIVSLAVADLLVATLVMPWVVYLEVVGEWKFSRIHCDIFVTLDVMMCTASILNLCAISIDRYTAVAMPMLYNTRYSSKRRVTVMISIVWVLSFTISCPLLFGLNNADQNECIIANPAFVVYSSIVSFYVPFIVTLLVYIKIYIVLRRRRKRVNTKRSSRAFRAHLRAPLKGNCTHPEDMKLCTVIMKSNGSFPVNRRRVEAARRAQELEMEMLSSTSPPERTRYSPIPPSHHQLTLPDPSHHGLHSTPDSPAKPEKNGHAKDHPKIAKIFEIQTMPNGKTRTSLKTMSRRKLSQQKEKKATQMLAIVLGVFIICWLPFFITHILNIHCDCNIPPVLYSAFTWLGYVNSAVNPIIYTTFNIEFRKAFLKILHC

Experiments:
[1] = Nuclear factor erythroid 2-related factor 2/antioxidant responsive element (Nrf2/ARE) small molecule agonists: qHTS cell viability counter screen in human keratinocytes (AID 1919968; active means well fitted curve in the direction sought with a large enough effect in the repeat runs; an effect the other way counts as inactive or inconclusive; further: nearly all actives have a fitted effect of over 55% in size); conditions: KeratinoSens HaCaT ARE cells viability, CellTiter-Fluor, 24 h; at 92.4 µM (top of the series) unless noted
In short: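 HaCaT ARE reporter line, 1,500 cells/well; 5 h settle, 37 C/5% CO2; cpd in DMSO pinned; 23 h exposure; CellTiter-Fluor, 1 h; fluorescence.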

[2] = target: Gonadotropin-releasing hormone receptor (Homo sapiens) (UniProt P30968); experiment: Human gonadotropin-releasing hormone receptor (GnRHR) small molecule agonists, calcium flux assay in GnRHR-HEK293 cells (AID 1920063); conditions: calcium flux fluorescence, agonist mode, stronger effect = higher value; at 57.6 µM (top of the series) unless noted; further: nearly all actives have a fitted effect of over 35% in size
In short: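 GnRHR-HEK293, 1500 cells/well, 18 h 37 C/5% CO2; Ca dye 1 h 37 C; cpd pinned (DMSO), agonist mode; kinetic FL 480/540, 3 min, 1 s reads; 15 conc, n=3.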

[3] = target: KiSS-1 receptor (Homo sapiens) (UniProt Q969F8); experiment: Human kisspeptin (KISS1R) small molecule agonists, calcium flux assay in KISS1R-HEK293 cells (AID 1920064; active means well fitted curve in the direction sought with a large enough effect in the repeat runs; an effect the other way counts as inactive or inconclusive); conditions: KISS1R-HEK293, calcium flux fluorescence, agonist; at 76.8 µM (top of the series) unless noted
In short: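 Stable human KISS1R HEK293 line; 18 h plating, 37 C/5% CO2; calcium dye 1 h 37 C; compound pin transfer; kinetic fluorescence Ex/Em 480/540, 3 min.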

[4] = G protein-coupled receptor (GPCR) small molecule agonists, calcium flux assay: HEK293 wild type cell line counter screen (AID 1920065); conditions: HEK293 WT calcium flux, fluorescence, agonist mode; at 57.6 µM (top of the series) unless noted
In short: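 Kinetic fluorescence at Ex/Em 480/540, recorded every second over 3 min, served as the read-out after compound addition. Each compound was tested at 15 concentrations in triplicate on cells pre-loaded with calcium dye for 1 h.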

[5] = p53 small molecule agonists, cell-based qHTS assay with human liver microsomes (AID 1963577); conditions: HCT-116 p53RE-bla with human liver microsomes, ratio, 16 h; at 66 µM (top of the series) unless noted;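 further: p53 response element beta-lactamase reporter cells with liver microsomes plus NADPH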
In short: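 16 h, 37 C exposure of p53RE-bla cells to compounds with human liver microsomes and NADPH (0.5 mg/mL final each); detection via LiveBLAzer mixture, 2 h dark at room temperature.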

[6] = p53 small molecule agonists, cell-based qHTS assay with rat liver microsomes (AID 1963578); conditions: HCT-116 p53RE-bla, beta-lactamase ratio, 16 h; at 66 µM (top of the series) unless noted
In short: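 With rat liver microsomes and NADPH present (0.5 mg/mL final each), p53RE-bla cells are treated with compound for 16 h at 37 C. LiveBLAzer detection mixture is then applied for 2 h at room temperature in the dark.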

[7] = p53 small molecule agonists, cell-based qHTS assay with human liver microsomes: qHTS cell viability counter screen (AID 1963579); conditions: p53RE-bla HCT-116 viability, ATP luminescence, 16 h, HLM; at 66 µM (top of the series) unless noted; further: nearly all actives have a fitted effect of over 45% in size
In short: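 In this multiplexed counter screen, the reporter plates were subsequently treated with CellTiter-Glo so that cell viability, reflected by luminescence, could be recorded for p53RE-bla cells dosed 16 h with compounds under microsomal activation (HLM and NADPH).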

[8] = p53 small molecule agonists, cell-based qHTS assay with rat liver microsomes: qHTS cell viability counter screen (AID 1963580); conditions: p53RE-bla HCT-116 + rat microsomes, ATP viability, 16 h; at 66 µM (top of the series) unless noted; further: nearly all actives have a fitted effect of over 45% in size
In short: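 HCT-116 p53RE-bla, 4,000 cells/well, 5 h pre-incubation; cpd + rat liver microsomes 0.5 mg/mL + NADPH 0.5 mg/mL (final); 16 h, 37 C; CellTiter-Glo, 30 min RT; luminescence.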

[9] = p53 small molecule agonists, cell-based qHTS assay: qHTS cell viability counter screen (AID 1963581); conditions: p53RE-bla HCT-116 viability, ATP luminescence, 16 h; at 66 µM (top of the series) unless noted; further: nearly all actives have a fitted effect of over 45% in size
In short: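 HCT-116 p53RE-bla cells, 4,000/well, plated 5 h before compound pin transfer; 16 h at 37 C; bla substrate 2 h RT; then CellTiter-Glo, 30 min RT, luminescence.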

[10] = p53 small molecule agonists, cell-based qHTS assay (AID 1963582; active means well fitted activation curve with a large enough effect in the signal ratio in the repeat runs, not every such curve was filed as active; the % refers to the signal ratio); conditions: HCT-116 p53RE-bla reporter, beta-lactamase FRET ratio, 16 h; at 66 µM (top of the series) unless noted
In short: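 Reporter line: p53RE-bla. Pre-incubation 5 h, 37 C, 5% CO2; compound (DMSO, pin tool) 16 h, 37 C; B/G FRET substrate 2 h RT; fluorescence intensity read.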

[11] = target: 5-hydroxytryptamine receptor 2A (Homo sapiens) (UniProt P28223); experiment: 5-hydroxytryptamine receptor 2A (HTR2A) small molecule antagonists, cell-based qHTS assay (AID 1963586); conditions: HTR2A-CHO cells, DOI-induced calcium flux, fluorescence; at 61.5 µM (top of the series) unless noted; further: nearly all actives have a fitted effect of over 45% in size
In short: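 Antagonist-mode intracellular calcium assay: DOI (4 nM) added after 5 min compound pre-incubation at room temperature to dye-loaded HTR2A-CHO cells. Fluorescence followed for 3 min, sampled every second.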

[12] = target: 5-hydroxytryptamine receptor 2A (Homo sapiens) (UniProt P28223); experiment: 5-hydroxytryptamine receptor 2A (HTR2A) small molecule agonists, cell-based qHTS assay (AID 1963587); conditions: HTR2A-CHO cells, calcium flux fluorescence, agonist mode; at 76.8 µM (top of the series) unless noted; further: nearly all actives have a fitted effect of over 30% in size
In short: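 Kinetic calcium-flux fluorescence (2 min, 1 sec intervals) after compound addition in agonist mode. HTR2A-CHO cells were cultured 18 h, then dye-loaded 1 h at 37 C.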

[13] = target: Muscarinic acetylcholine receptor M1 (Homo sapiens) (UniProt P11229); experiment: Cholinergic receptor muscarinic 1 (CHRM1) small molecule antagonists, cell-based qHTS assay (AID 1963588); conditions: CHRM1-CHO antagonist mode, calcium flux fluorescence; at 61.5 µM (top of the series) unless noted; further: nearly all actives have a fitted effect of over 40% in size
In short: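 CHRM1-CHO calcium-flux assay, antagonist mode. Cells were seeded 18 h, dye-loaded 1 h at 37 C and given compound for 5 min at RT, then acetylcholine was added at 50nM. FDSS fluorescence was read 3 min; 15 concentrations, three runs.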

[14] = target: Muscarinic acetylcholine receptor M1 (Homo sapiens) (UniProt P11229); experiment: Cholinergic receptor muscarinic 1 (CHRM1) small molecule agonists, cell-based qHTS assay (AID 1963589); conditions: CHRM1-CHO cells, agonist mode, calcium flux fluorescence; at 76.8 µM (top of the series) unless noted; further: nearly all actives have a fitted effect of over 35% in size
In short: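 Human M1 in stable CHO line; 18 h plating, 1 h dye load 37 C; cpd added (agonist mode); Ca2+ fluorescence kinetic read, 1 s intervals; 15 conc, 3 runs.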

[15] = cAMP Responsive Elements (CRE) small molecule agonists, cell-based qHTS assay (AID 1963590); conditions: CRE-bla HEK293T, beta-lactamase FRET ratio, 3 h; at 92.4 µM (top of the series) unless noted
In short: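 HEK 293T CRE-bla, 2,000 cells/well, 18 h preincubation 37 C/5% CO2; cpds (DMSO) pinned, 3 h; LiveBLAzer B/G FRET substrate, 2 h RT.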

[16] = cAMP Responsive Elements (CRE) small molecule antagonists, cell-based qHTS assay (AID 1963591; active means well fitted inhibition curve with a large enough effect in the signal ratio in the repeat runs, not every such curve was filed as active; the % refers to the signal ratio); conditions: CRE-bla HEK293T, beta-lactamase FRET ratio; at 92.4 µM (top of the series) unless noted
In short: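 Beta-lactamase reporter read by FRET substrate (LiveBLAzer B/G) after 2 h at room temperature. CRE-bla HEK293T cells had received compound plus 0.25 uM (final) NKH477 for 3 h at 37 °C.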

[17] = target: Beta-2 adrenergic receptor (Homo sapiens) (UniProt P07550); experiment: Adrenergic beta2 receptor (ADRB2) small molecule antagonists, cell-based qHTS assay (AID 1963592); conditions: CHO-ADRB2 cells, isoproterenol-stimulated cAMP HTRF ratio, 0.5 h; at 92.4 µM (top of the series) unless noted; further: nearly all actives have a fitted effect of over 50% in size
In short: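 Cells (CHO, stable ADRB2 overexpression) incubated 18-20hr at 37C; compounds added from DMSO; agonist mix (1nM isoproterenol, 100uM IBMX, 25uM Ro-20-1724) added; 0.5hr RT; d2-cAMP and anti-cAMP-cryptate added; 1hr RT; 665/615 nm read.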

[18] = target: D(2) dopamine receptor (Homo sapiens) (UniProt P14416); experiment: Dopamine D2 receptor (DRD2) small molecule agonists, cell-based qHTS assay (AID 1963594); conditions: HEK293-DRD2 cAMP HTRF, agonist mode, 30 min; at 92.4 µM (top of the series) unless noted; further: nearly all actives have a fitted effect of over 35% in size
In short: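 cAMP accumulation in DRD2-HEK293 cells measured by HTRF after 1 h detection; compounds added 10 min before NKH477 (200nM […]) forskolin-analogue stimulation, 30 min at room temperature, with Ro20-1724 present at 0.1 mM final.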

[19] = target: D(2) dopamine receptor (Homo sapiens) (UniProt P14416); experiment: Dopamine D2 receptor (DRD2) small molecule antagonists, cell-based qHTS assay (AID 1963595; active means well fitted inhibition curve with a large enough effect in the signal ratio in the repeat runs, with a control signal flat; the % refers to the signal ratio); conditions: HEK293-DRD2 cAMP HTRF antagonist mode; at 92.4 µM (top of the series) unless noted
In short: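 HTRF cAMP read-out at 665 and 620 nm emission (340 nm excitation). Antagonist mode: compounds were tested against 12 nM quinpirole in DRD2-HEK293 cells, with 200 nM NKH477 raising cAMP and 0.1 mM Ro20-1724 blocking its breakdown.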

[20] = Nuclear factor erythroid 2-related factor 2/antioxidant responsive element (Nrf2/ARE) small molecule agonists: luciferase reporter gene qHTS assay in human keratinocytes (AID 1919969); conditions: KeratinoSens HaCaT ARE-luciferase, luminescence, 24 h; at 92.4 µM (top of the series) unless noted; further: nearly all actives have a fitted effect of over 35% in size
Description: National Center for Advancing Translational Sciences [NCATS]
Division of Preclinical Innovation [DPI]
U.S. Environmental Protection Agency [EPA]
National Institutes of Environmental Health Sciences [NIEHS]
National Toxicology Program [NTP]
U.S. Food and Drug Administration [FDA]
Oxidative stress has been implicated in the pathogenesis of a variety of diseases ranging from cancer to neurodegeneration. The antioxidant response element (ARE) signaling pathway plays an important role in the amelioration of oxidative stress. The KeratinoSens (Givaudan, Switzerland) is an in vitro test method which quantifies luciferase induction as a measure of activation of Keap1-Nrf2-antioxidationt/electrophile response element (ARE) dependant pathway in HaCaT human keratinocytes stably transfected with a selectable plasmid. The KeratinoSens assay is a cell-based assay with a reporter cell line to detect potential skin sensitizers by their ability to induce the Nrf2/ARE-response. The activation of the report gene under culture conditions can be detected by ONE-Glo Luciferase Assay System (Promega, Madison, WI). This cell line has been used to screen the Tox21 10K compound library to identify agonists that induce oxidative stress. The cytotoxicity of the Tox21 compound library against the KS-ARE cell line was tested in parallel by measuring the cell viability using CellTiter- Fluor assay system (Promega, Madison, WI) in the same wells.
HaCaT derived cell line KeratinoSens were dispensed at 1,500 cells/5uL/well in 1536-well white wall/solid bottom plates using a Multidrop Combi (ThermoFisher Scientific, Waltham, MA) dispenser. After the assay plates were incubated at 37 C/5% CO2 for 5 h, 23 nL of compounds dissolved in DMSO, positive controls or DMSO only was transferred to the assay plate by a pintool workstation (Kalypsys, San Diego, CA). The plates were incubated at 37 C/5% CO2 for 23 h, followed by addition of 1uL/well of CellTiter-Fluor reagent into the assay plates using a Flying Reagent Dispenser (Aurora Discovery, San Diego, CA) for cell viability readout that measures cytotoxicity. After 1 h incubation at 37 C/5% CO2 the fluorescence intensity was measured using a ViewLux (PerkinElmer, Shelton, CT) plate reader. Then 4uL/well of One-Glo were added using a Flying Reagent Dispenser. After the plates were incubated at room temperature for 30 min, the luminescence intensity in the assay plates was measured using ViewLux plate reader.

[21] = target: Beta-2 adrenergic receptor (Homo sapiens) (UniProt P07550); experiment: Adrenergic beta2 receptor (ADRB2) small molecule agonists, cell-based qHTS assay (AID 1963593); conditions: CHO-ADRB2 cells, cAMP HTRF, 30 min; at 92.4 µM (top of the series) unless noted;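 further: CHO cells stably overexpressing human ADRB2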
In short: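 CHO cells stably over-expressing ADRB2 were plated overnight at 37C, then dosed with compounds plus a stimulation mix containing 100uM IBMX and 25uM Ro-20-1724 for 0.5hr at room temperature. cAMP was measured by HTRF competition, 1hr.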
On the % scale 0 is the no-effect control and ±100 the full control effect.

CCOP(=S)(Cl)OCC
inactive: activity change, negative = cytotoxicity [1] -4.1% | activity change [2] -1.86% | activation [3] 0.958% | activation [4] -0.933% | activation [5] 1.49% | activation [6] -2.38% | activity change, negative = cytotoxicity [7] -0.788% | activity change, negative = cytotoxicity [8] 0.646% | activity change, negative = cytotoxicity [9] 0% | activation [10] -6.91% | activity, negative = inhibition [11] 15.5% | activation [12] 0.591% | activity, negative = inhibition [13] 2.51% | activation [14] -0.104% | activation [15] 2.64% | activity change, negative = inhibition [16] 0.126% | activity change, negative = inhibition [17] -8.91% | activation [18] -0.0389% | activity change, negative = inhibition [19] 10.2%

ClCCOP(OCCCl)OCCCl
inactive: activity change, negative = cytotoxicity [1] 0.125% and -1.13% | activity, positive = activation [20] 6.08% and 2.42% | activity change [2] 0.364% and -0.0565% | activation [3] 1.92% and -1.44% | activation [4] -0.0032% and -0.0985% | activation [5] 2.23% and 0.182% | activation [6] 0.221% and -0.726% | activity change, negative = cytotoxicity [7] -2.41% and 5.47% | activity change, negative = cytotoxicity [8] -11.2% and 3.65% | activity change, negative = cytotoxicity [9] -0.412% and -15.1% | activation [10] 0.296% and -1.65% | activity, negative = inhibition [11] 1.73% and 1.28% | activation [12] -0.629% and 0.874% | activity, negative = inhibition [13] -3.73% and -2.62% | activation [14] -0.126% and 0.547% | activation [15] -0.77% and 0.311% | activity change, negative = inhibition [16] 0.648% and 1.06% | activity change, negative = inhibition [17] 1.16% and 9.55% | activation [21] 20.8% | activation [18] 5.58% and 0.402% | activity change, negative = inhibition [19] -0.833% and 13.4%
